Reference: patent US20080039376A1, “Use of Cyclic Anabaenopeptin-type Peptides for the Treatment of a Condition Wherein Inhibition of Carboxypeptidase U is Beneficial, Novel Anabaenopeptin Derivatives and Intermediates Thereof” (A[…], priority 2003, published 2008)

Chains of the proteins cited; added tags and fusions are not shown. Residues count along the entry.
UniProt Q96IY4, 115-423 limits assumed: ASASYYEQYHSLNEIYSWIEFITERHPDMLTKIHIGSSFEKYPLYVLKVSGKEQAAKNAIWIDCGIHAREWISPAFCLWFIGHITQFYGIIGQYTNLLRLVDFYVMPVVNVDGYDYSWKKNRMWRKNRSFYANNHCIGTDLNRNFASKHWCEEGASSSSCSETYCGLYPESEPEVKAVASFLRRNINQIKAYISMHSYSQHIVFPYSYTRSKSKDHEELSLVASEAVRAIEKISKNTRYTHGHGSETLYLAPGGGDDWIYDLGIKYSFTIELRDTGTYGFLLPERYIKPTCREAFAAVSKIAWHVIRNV

Target: carboxypeptidase U (Homo sapiens, UniProt Q96IY4)
Test: carboxypeptidase U inhibition assay (Hendriks et al., Clin. Chem. 1985), substrate concentration 4 mM
Conditions: substrate concentration of 4 mM
Procedure: The inhibiting effect of the compounds of the present invention was estimated using the assay described in: Dirk Hendriks, Simon Scharpé and Marc van Sande, Clinical Chemistry, 31, 1936-1939 (1985); and Wei Wang, Dirk F. Hendriks, Simon S. Scharpé, The Journal of Biological Chemistry, 269, 15937-15944 (1994), using a substrate concentration of 4 mM.
The activities of certain Examples in the assay described in: Dirk Hendriks, Simon Sharpé and Marc van Sande, Clinical Chemistry, 31, 1936-1939 (1985), using a substrate concentration of 4 mM, are presented in Table I below.

Question: Which IC50 does the source give for `CC(C)C[C@@H]1NC(=O)[C@H](C)NC(=O)[C@H](NC(=O)N[C@@H](CCCNC(=N)N)C(=O)O)CCCCNC(=O)[C@H](C)NC(=O)[C@H](CC(C)C)N(C)C1=O` here?
Answer: 200 nM
